Test results as given in patent US6271234A, “1,4-disubstituted piperazines” (Recordati S.A., Chemical and Pharmaceutical Company, priority 1997, dated 2001).

Tested on: rhythmic bladder voiding contractions
Experiment: Effects on volume-induced rhythmic bladder voiding contractions in anaesthetized rats
Type: in vivo, Female Sprague Dawley rats
Settings: mean ± S.E.

Compound: COc1ccccc1N1CCN(CCN(C(=O)C2CCCCC2)c2ccccn2)CC1 [Compound A, N-(2-pyridyl)-N,2-[4-(2-methoxyphenyl)-1-piperazinyl]ethylcyclohexanecarboxamide, reference compound]
- Bladder Quiescence (disappearance time of contractions) (3 μg/kg i.v.): 2.99 ± 0.63 min
- Bladder Quiescence (disappearance time of contractions) (10 μg/kg i.v.): 8.31 ± 1.28 min
- Bladder Quiescence (disappearance time of contractions) (30 μg/kg i.v.): 9.52 ± 0.82 min
- Bladder Quiescence (disappearance time of contractions) (100 μg/kg i.v.): 11.25 ± 1.09 min
- Bladder Quiescence (disappearance time of contractions) (1000 μg/kg i.v.): 6.30 ± 1.42 min
- Bladder Quiescence (disappearance time of contractions) (3000 μg/kg i.v.): 9.25 ± 2.77 min
